These results are taken from ChEMBL document CHEMBL5154811, “Discovery of SPH5030, a Selective, Potent, and Irreversible Tyrosine Kinase Inhibitor for HER2-Amplified and HER2-Mutant Cancer Treatment” (J Med Chem, 2022).

One test is filed under the species Homo sapiens. Nature of the test: Selectivity ratio of IC50 for wild type human N-terminal GST tagged EGFR (669 to 1210 residues) expressed in Sf21 insect cells to IC50 for wild type human GST-tagged HER2 (676 to end residues) expressed in baculovirus infected Sf9 cells.
Test [1] has as its system Receptor tyrosine-protein kinase erbB-2 (Homo sapiens), P04626 [D769H]. The experiment in a line: Potency index, ratio of neratinib IC50 to test compound IC50 for inhibition of HER2 D769H mutant (unknown origin) incubated for 120 mins in presence of 33P-ATP by P81 ion exchange cellulose chromatography.
Test [2] relates to Receptor tyrosine-protein kinase erbB-2 (Homo sapiens), P04626 [D769Y]. Nature of the test: Potency index, ratio of neratinib IC50 to test compound IC50 for inhibition of HER2 D769Y mutant (unknown origin) incubated for 120 mins in presence of 33P-ATP by P81 ion exchange cellulose chromatography.
The subject of test [3] is Receptor tyrosine-protein kinase erbB-2 (Homo sapiens), P04626 [V777L]. The experiment in a line: Potency index, ratio of neratinib IC50 to test compound IC50 for inhibition of HER2 V777L mutant (unknown origin) incubated for 120 mins in presence of 33P-ATP by P81 ion exchange cellulose chromatography.
The test system of test [4] is Receptor tyrosine-protein kinase erbB-2 (Homo sapiens), P04626 [R896C]. Nature of the test: Potency index, ratio of neratinib IC50 to test compound IC50 for inhibition of HER2 R896C mutant (unknown origin) incubated for 120 mins in presence of 33P-ATP by P81 ion exchange cellulose chromatography.
The test system of test [5] is Receptor tyrosine-protein kinase erbB-2 (Homo sapiens), P04626 [D769H]. Nature of the test: Potency index, ratio of pyrotinib IC50 to test compound IC50 for inhibition of HER2 D769H mutant (unknown origin) incubated for 120 mins in presence of 33P-ATP by P81 ion exchange cellulose chromatography.
Test [6] deals with Receptor tyrosine-protein kinase erbB-2 (Homo sapiens), P04626 [D769Y]. The experiment in a line: Potency index, ratio of pyrotinib IC50 to test compound IC50 for inhibition of HER2 D769Y mutant (unknown origin) incubated for 120 mins in presence of 33P-ATP by P81 ion exchange cellulose chromatography.
Test [7] concerns Receptor tyrosine-protein kinase erbB-2 (Homo sapiens), P04626 [V777L]. The experiment in a line: Potency index, ratio of pyrotinib IC50 to test compound IC50 for inhibition of HER2 V777L mutant (unknown origin) incubated for 120 mins in presence of 33P-ATP by P81 ion exchange cellulose chromatography.
Test [8] relates to Receptor tyrosine-protein kinase erbB-2 (Homo sapiens), P04626 [R896C]. The experiment in a line: Potency index, ratio of pyrotinib IC50 to test compound IC50 for inhibition of HER2 R896C mutant (unknown origin) incubated for 120 mins in presence of 33P-ATP by P81 ion exchange cellulose chromatography.

`Cc1cc(Nc2ncnc3ccc(NC(=O)/C=C/CN(C)C)cc23)ccc1Oc1cc2nncn2cn1`: in the test listed under Homo sapiens, the Ratio IC50 amounted to 0.75.

Consider `Cc1cc(Nc2ncnc3ccc(NC(=O)/C=C/[C@H]4CCCN4C)cc23)ccc1Oc1cc2nncn2cn1`, for which, in the test listed under Homo sapiens, the Ratio IC50 turned out to be 0.85.

For the compound `Cc1cc(Nc2ncnc3cc(O)c(NC(=O)/C=C/[C@H]4CCCN4C)cc23)ccc1Oc1cnn2cnnc2c1`, the Ratio IC50 in the test listed under Homo sapiens was determined as 0.74.

With `CCOc1cc2ncnc(Nc3ccc(Oc4cc5nncn5cn4)c(C)c3)c2cc1NC(=O)/C(F)=C/[C@@H]1CCCN1C`, the Ratio IC50 in the test filed under Homo sapiens was 9.5.

On to `CCOc1cc2ncnc(Nc3ccc(Oc4cc5nncn5cn4)c(C)c3)c2cc1NC(=O)/C=C/[C@H]1CCCN1C`, for which the Ratio IC50 in the test listed under Homo sapiens turned out to be 0.81. The same measure, in the same setting: then `Cc1cc(Nc2ncnc3cc(O)c(NC(=O)/C=C/[C@H]4CCCN4C)cc23)ccc1Oc1cnc2ccnn2c1`, with 0.43. Take `C=C(F)C(=O)Nc1cc2c(Nc3ccc(Oc4cc5nncn5cn4)c(C)c3)ncnc2cc1OCC`: the Ratio IC50 in the test filed under Homo sapiens came to 2.73. Turning to `Cc1cc(Nc2ncnc3cc(O)c(NC(=O)/C=C/[C@H]4CCCN4C)cc23)ccc1Oc1ccn2ccnc2c1`, the Ratio IC50 in the test listed under Homo sapiens stood at 1.36.

Regarding `Cc1cc(Nc2ncnc3cc(O)c(NC(=O)/C=C/[C@H]4CCCN4C)cc23)ccc1Oc1ccc2nccn2c1`, the Ratio IC50 in the test filed under Homo sapiens was 0.36. For `CCOc1cc2ncnc(Nc3ccc(Oc4cc5nncn5cn4)c(C)c3)c2cc1NC(=O)/C(F)=C/[C@H]1CCCN1C`, the Ratio IC50 was 2.32 in the test listed under Homo sapiens; 3.1 in test [1]; 3.1 in test [2]; 3.1 in test [3]; 3.1 in test [4]; 4.3 in [5]. Further, the Ratio IC50 in test [6], in test [7] and in test [8] was 4.3 throughout. Consider `Cc1cc(Nc2ncnc3cc(O)c(NC(=O)/C=C/[C@H]4CCCN4C)cc23)ccc1Oc1cc2nccn2cn1`, for which the Ratio IC50 in the test listed under Homo sapiens stood at 1.05. For `CCOc1cc2ncnc(Nc3ccc(Oc4cc5nncn5cn4)c(C)c3)c2cc1NC(=O)/C(F)=C\[C@H]1CCCN1C`, in the test filed under Homo sapiens, the Ratio IC50 came to 11.8. The same measure, in the same setting: then `Cc1cc(Nc2c(C#N)cnc3ccc(NC(=O)/C=C/CN(C)C)cc23)ccc1Oc1cc2nncn2cn1`, with 0.33; and `CCOc1cc2ncnc(Nc3ccc(Oc4cc5nncn5cn4)c(C)c3)c2cc1NC(=O)/C(F)=C\[C@@H]1CCCN1C`, with 7.05; and `C=CC(=O)Nc1cc2c(Nc3ccc(Oc4cc5nncn5cn4)c(C)c3)ncnc2cc1OCC`, with 0.76. Still for that read-out and setting: next, `Cc1cc(Nc2ncnc3cc(O)c(NC(=O)/C=C/[C@H]4CCCN4C)cc23)ccc1Oc1ccn2cnnc2c1`: 3.6; `Cc1cc(Nc2c(C#N)cnc3ccc(NC(=O)/C=C/[C@H]4CCCN4C)cc23)ccc1Oc1cc2nncn2cn1`: 0.29; `COCC(=O)NC/C=C/c1ccc2ncnc(Nc3ccc(Oc4cc5nncn5cn4)c(C)c3)c2c1`: 43.3. Same read-out and setting: then `Cc1cc(Nc2ncnc3cc(O)c(NC(=O)/C=C/[C@H]4CCCN4C)cc23)ccc1Oc1ccn2ncnc2c1`, with 1.95.
